These results are taken from patent publication US20070129419A1, “Serotonin transporter (SERT) inhibitors for the treatment of depression and anxiety” (priority 2005, published 2007).

Chains of the proteins cited; added tags and fusions are not shown.
UniProt P31645, whole entry: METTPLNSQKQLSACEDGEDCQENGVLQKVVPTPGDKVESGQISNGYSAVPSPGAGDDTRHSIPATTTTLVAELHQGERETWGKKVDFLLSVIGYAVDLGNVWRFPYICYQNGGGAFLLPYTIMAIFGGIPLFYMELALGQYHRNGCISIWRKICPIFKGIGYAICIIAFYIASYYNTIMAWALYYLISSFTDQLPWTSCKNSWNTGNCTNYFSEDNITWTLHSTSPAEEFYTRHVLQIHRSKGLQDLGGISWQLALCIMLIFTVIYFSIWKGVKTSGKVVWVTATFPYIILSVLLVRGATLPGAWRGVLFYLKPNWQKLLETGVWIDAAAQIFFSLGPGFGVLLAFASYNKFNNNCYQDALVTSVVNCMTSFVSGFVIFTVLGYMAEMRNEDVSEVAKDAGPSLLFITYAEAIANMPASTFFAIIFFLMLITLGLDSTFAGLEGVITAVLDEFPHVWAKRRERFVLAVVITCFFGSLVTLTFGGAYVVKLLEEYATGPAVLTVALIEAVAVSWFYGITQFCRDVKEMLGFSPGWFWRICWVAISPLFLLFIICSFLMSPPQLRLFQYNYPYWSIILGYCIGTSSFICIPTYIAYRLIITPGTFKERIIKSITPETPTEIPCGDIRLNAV
UniProt P25103, whole entry: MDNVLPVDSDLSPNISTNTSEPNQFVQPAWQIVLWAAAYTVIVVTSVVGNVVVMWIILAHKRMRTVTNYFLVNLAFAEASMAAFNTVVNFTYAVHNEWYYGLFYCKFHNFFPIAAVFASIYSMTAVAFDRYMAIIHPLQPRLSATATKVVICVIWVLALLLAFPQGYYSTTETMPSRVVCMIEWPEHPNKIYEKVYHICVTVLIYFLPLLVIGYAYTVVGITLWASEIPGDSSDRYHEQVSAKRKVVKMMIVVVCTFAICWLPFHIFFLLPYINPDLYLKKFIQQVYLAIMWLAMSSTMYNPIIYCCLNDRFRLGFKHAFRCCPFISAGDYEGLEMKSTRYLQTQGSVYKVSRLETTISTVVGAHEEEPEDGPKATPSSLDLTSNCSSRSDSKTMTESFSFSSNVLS

One assay addresses recombinant human SERT (Homo sapiens, UniProt P31645). Briefly: hSERT SPA binding assay ([3H]citalopram displacement, HEK-293 membranes). The note with it: [3H]citalopram 1 nM, HEK-293 membranes expressing human SERT. The protocol:
HEK-293 cells stably expressing recombinant human SERT are maintained with DMEM high glucose with 10% FBS, 300 μg/ml G418 and 2 mM L-Glutamine and incubated at 37° C. with 5% CO2. Cells are released from culture flasks using PBS for 1-2 min. The cells are subsequently centrifuged at 1000 g's for 5 min and resuspended in PBS prior to being used in the membrane preparation.
Cells are homogenized using a Polytron in 50 mM Tris (pH 7.4). Centrifuged at 48,000×g for 15 min, and the pellet resuspended in fresh buffer. After a second centrifugation, the pellet is re-homogenized and resuspended in fresh buffer. Typically, membrane portions are aliquoted in 3 mg/ml (w:v). and stored at −80° C.
A serial dilution of test compounds in 50 mM Tris-HCl, 120 mM NaCl, KCl 5 mM (pH 7.4) is made in a white Optiplate (Packard) (100 μl/well) and the radioligand ^3[H] Citalopram (Specific activity: 60-86 Ci/mmol, Final concentration: 1 nM) is added at 50 μl/well. Membrane and beads are prepared to a ratio of 5 μg:0.6 mg, with 0.6 mg PVT-WGA Amersham beads (Cat#RPQ0282V) added per well. 50 μl of the membrane/bead mixture is added to the assay plate for a final volume of 200 μl. The mixtures are allowed to stand at room temperature for one hour, and are then counted on a Packard TopCount.
The % inhibition is calculated for each compound tested (with 100% binding being the value obtained with the incubation of membrane/beads and radioligand in buffer without compound minus the non-specific binding measured in presence of 10 μM Fluoxetine). The concentration producing 50% inhibition (IC50) is determined using an iterative non-linear curve fitting technique. The inhibition dissociation constant (Ki) of each compound is determined according to the method of Cheng-Prusoff, decribed in Biochem. Pharmacol., 1973, 22(23), pages 3099-3108.

The next assay has as its target human NK-1 receptor (Homo sapiens, UniProt P25103). Briefly: hNK-1 binding assay ([3H]substance P displacement, CHO cells). The conditions noted are these: [3H]substance P 0.6 nM, CHO cells transfected with human NK-1 receptor. How it is done:
The affinity of test compounds for the NK-1 receptor was evaluated at human NK-1 receptors in CHO cells transfected with the human NK-1 receptor using the Semliki virus expression system and radiolabelled with [^3H]substance P (final concentration 0.6 nM). Binding assays were performed in HEPES buffer (50 mM, pH 7.4) containing BSA (0.04%) leupeptin (8 μg/ml), MnCl2 (3 mM) and phosphoramidon (2 μM). Binding assays consisted of 250 μl of membrane suspension (1.25×10^5 cells/assay tube), 125 μl of buffer of displacing agent and 125 μl of [^3H]substance P. Displacement curves were determined with at least ten concentrations of the compound. The assay tubes were incubated for 60 min at room temperature after which time the tube contents were rapidly filtered under vacuum through GF/C filters presoaked for 60 min with PEI (0.3%) with 2×2 ml washes of HEPES buffer (50 mM, pH 7.4). The radioactivity retained on the filters was measured by scintillation counting. All assays were performed in duplicate in at least 2 separate experiments.
The inhibition dissociation constant (Ki) of each compound for NK1 is determined as described above for hSERT.

Regarding `FC(F)(F)c1cc(COC[C@@H]2CNC[C@H]2c2cccc(Cl)c2)cc(C(F)(F)F)c1`, at recombinant human SERT, the “pKi hSERT” value turned out to be 6.49. The “pKi hNK1” value on human NK-1 receptor stood at 7.57.
On the same counts, the results for `Cc1ccccc1[C@@H]1CNC[C@H]1COCc1cc(C(F)(F)F)cc(C(F)(F)F)c1` are 6.28 and 7.90.
On the same counts, the results for `Fc1ccc([C@@H]2CNC[C@H]2COCc2cc(C(F)(F)F)cc(C(F)(F)F)c2)cc1` are 6.93 and 8.12.
